Measured values from patent EP3277282B1, “DASATINIB FOR USE IN THE TREATMENT, REGRESSION OR DECELERATING THE PROGRESS OF FIBROTIC LUNG DISEASES” (Istanbul Universitesi Rektorlugu, priority 2015, dated 2016).

Tested on: lungs of BLM treated mice
Conditions: on average, from 5 (BLM only) to 3; BLM 0.08 mg/kg single intra-tracheal dose; dasatinib 8 mg/kg by gavage; day 21; scale 0 to 8

Cc1nc(Nc2ncc(C(=O)Nc3c(C)cccc3Cl)s2)cc(N2CCN(CCO)CC2)n1 [Dasatinib, N-(2-chloro-6-methylphenyl)-2-[[6-[4-(2-hydroxyethyl)-1-piperazinyl]-2-methyl]-4-pyrimidinyl]amino]-5-thiazolecarboxamide mono-hydrate]
degree of fibrosis (Ashcroft score): 3
